Source: patent EP4834878A1, “AMIDE DERIVATIVE, PREPARATION METHOD THEREFOR AND USE THEREOF” (dated 2026)

Sequences of proteins named here, by UniProt entry; tags and fusion partners are left off.
UniProt P27338, whole entry: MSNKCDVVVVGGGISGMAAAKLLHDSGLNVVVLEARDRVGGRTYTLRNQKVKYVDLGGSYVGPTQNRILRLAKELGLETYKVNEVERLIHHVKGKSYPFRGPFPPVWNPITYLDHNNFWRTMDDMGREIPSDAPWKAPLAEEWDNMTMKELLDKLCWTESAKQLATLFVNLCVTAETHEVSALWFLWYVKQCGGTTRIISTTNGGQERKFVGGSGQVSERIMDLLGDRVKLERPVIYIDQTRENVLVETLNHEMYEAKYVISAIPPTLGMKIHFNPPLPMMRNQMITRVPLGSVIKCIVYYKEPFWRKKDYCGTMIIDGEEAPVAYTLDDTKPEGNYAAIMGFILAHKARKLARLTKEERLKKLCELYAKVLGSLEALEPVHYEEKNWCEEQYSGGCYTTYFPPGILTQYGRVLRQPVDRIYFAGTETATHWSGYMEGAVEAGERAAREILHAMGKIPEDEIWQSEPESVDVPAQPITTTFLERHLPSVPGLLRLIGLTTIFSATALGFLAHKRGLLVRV
UniProt P21397, whole entry: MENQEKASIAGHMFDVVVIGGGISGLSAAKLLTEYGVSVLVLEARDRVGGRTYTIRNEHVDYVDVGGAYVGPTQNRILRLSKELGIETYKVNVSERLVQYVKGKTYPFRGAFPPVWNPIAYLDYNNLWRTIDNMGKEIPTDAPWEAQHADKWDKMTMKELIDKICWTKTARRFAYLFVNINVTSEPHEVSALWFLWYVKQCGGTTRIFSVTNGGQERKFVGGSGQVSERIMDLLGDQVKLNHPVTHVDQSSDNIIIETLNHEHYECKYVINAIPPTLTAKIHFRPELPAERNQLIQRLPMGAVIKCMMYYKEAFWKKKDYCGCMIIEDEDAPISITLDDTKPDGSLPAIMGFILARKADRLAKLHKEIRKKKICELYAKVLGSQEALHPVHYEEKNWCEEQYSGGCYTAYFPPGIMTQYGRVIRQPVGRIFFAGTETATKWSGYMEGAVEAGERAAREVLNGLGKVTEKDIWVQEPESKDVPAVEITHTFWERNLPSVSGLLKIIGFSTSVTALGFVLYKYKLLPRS

Assays:
DIO mice = test: Test of weight-lowering efficacy of compounds in DIO mice; details: 10 mg/kg intragastric once daily; for Mouse weight: group average
MAO-B = MAO-B (Homo sapiens, UniProt P27338); test: Determination of inhibitory activity of compounds against MAO-B (Amplex Red Monoamine Oxidase Assay Kit, fluorescence); details: read-out: MAO-B IC50, benzylamine substrate, 30 min pre-incubation, compounds in free form
MAO-A = MAO-A (Homo sapiens, UniProt P21397); test: Determination of inhibitory activity of compounds against MAO-A (MAO-Glo Assay, luminescence); details: read-out: MAO-A IC50; human monoamine oxidase A, 30 min pre-incubation; compounds in free form
[1] = day 0 vs day 0, methanesulfonate salt form
[2] = day 1 vs day 0, methanesulfonate salt form
[3] = day 2 vs day 0, methanesulfonate salt form
[4] = day 3 vs day 0, methanesulfonate salt form
[5] = day 4 vs day 0, methanesulfonate salt form
[6] = day 5 vs day 0, methanesulfonate salt form
[7] = day 6 vs day 0, methanesulfonate salt form
[8] = day 7 vs day 0, methanesulfonate salt form
[9] = day 8 vs day 0, methanesulfonate salt form
[10] = day 9 vs day 0, methanesulfonate salt form
[11] = day 10 vs day 0, methanesulfonate salt form
[12] = day 11 vs day 0, methanesulfonate salt form
[13] = day 12 vs day 0, methanesulfonate salt form
[14] = day 13 vs day 0, methanesulfonate salt form
[15] = day 14 vs day 0, methanesulfonate salt form
[16] = day 15 vs day 0, methanesulfonate salt form
[17] = day 16 vs day 0, methanesulfonate salt form
[18] = day 17 vs day 0, methanesulfonate salt form
[19] = day 18 vs day 0, methanesulfonate salt form
[20] = day 19 vs day 0, methanesulfonate salt form
[21] = day 20 vs day 0, methanesulfonate salt form
[22] = day 21 vs day 0, methanesulfonate salt form
[23] = day 22 vs day 0, methanesulfonate salt form
[24] = day 23 vs day 0, methanesulfonate salt form
[25] = day 24 vs day 0, methanesulfonate salt form

C[C@H](NCc1ccc(-c2ccc(C(F)(F)F)cc2)cc1F)C(N)=O
Mouse weight (DIO mice; day 0, methanesulfonate salt form): 50.1 g | Mouse weight change (DIO mice; [1]): 0 g | Mouse weight change rate (%) (DIO mice; [1]): 0% | Mouse weight (DIO mice; day 1, methanesulfonate salt form): 50.1 g | Mouse weight change (DIO mice; [2]): 0 g | Mouse weight change rate (%) (DIO mice; [2]): 0% | Mouse weight (DIO mice; day 2, methanesulfonate salt form): 49.6 g | Mouse weight change (DIO mice; [3]): -0.5 g | Mouse weight change rate (%) (DIO mice; [3]): -1% | Mouse weight (DIO mice; day 3, methanesulfonate salt form): 49.4 g | Mouse weight change (DIO mice; [4]): -0.7 g | Mouse weight change rate (%) (DIO mice; [4]): -1.4% | Mouse weight (DIO mice; day 4, methanesulfonate salt form): 49.8 g | Mouse weight change (DIO mice; [5]): -0.3 g | Mouse weight change rate (%) (DIO mice; [5]): -0.6% | Mouse weight (DIO mice; day 5, methanesulfonate salt form): 49.1 g | Mouse weight change (DIO mice; [6]): -1.0 g | Mouse weight change rate (%) (DIO mice; [6]): -2% | Mouse weight (DIO mice; day 6, methanesulfonate salt form): 49.1 g | Mouse weight change (DIO mice; [7]): -1.0 g | Mouse weight change rate (%) (DIO mice; [7]): -2% | Mouse weight (DIO mice; day 7, methanesulfonate salt form): 48.8 g | Mouse weight change (DIO mice; [8]): -1.3 g | Mouse weight change rate (%) (DIO mice; [8]): -2.6% | Mouse weight (DIO mice; day 8, methanesulfonate salt form): 48.9 g | Mouse weight change (DIO mice; [9]): -1.2 g | Mouse weight change rate (%) (DIO mice; [9]): -2.4% | Mouse weight (DIO mice; day 9, methanesulfonate salt form): 48.7 g | Mouse weight change (DIO mice; [10]): -1.4 g | Mouse weight change rate (%) (DIO mice; [10]): -2.8% | Mouse weight (DIO mice; day 10, methanesulfonate salt form): 48.8 g | Mouse weight change (DIO mice; [11]): -1.3 g | Mouse weight change rate (%) (DIO mice; [11]): -2.6% | Mouse weight (DIO mice; day 11, methanesulfonate salt form): 48.6 g | Mouse weight change (DIO mice; [12]): -1.5 g | Mouse weight change rate (%) (DIO mice; [12]): -3% | Mouse weight (DIO mice; day 12, methanesulfonate salt form): 48.4 g | Mouse weight change (DIO mice; [13]): -1.7 g | Mouse weight change rate (%) (DIO mice; [13]): -3.4% | Mouse weight (DIO mice; day 13, methanesulfonate salt form): 48.1 g | Mouse weight change (DIO mice; [14]): -2.0 g | Mouse weight change rate (%) (DIO mice; [14]): -4% | Mouse weight (DIO mice; day 14, methanesulfonate salt form): 47.8 g | Mouse weight change (DIO mice; [15]): -2.3 g | Mouse weight change rate (%) (DIO mice; [15]): -4.6% | Mouse weight (DIO mice; day 15, methanesulfonate salt form): 47.6 g | Mouse weight change (DIO mice; [16]): -2.5 g | Mouse weight change rate (%) (DIO mice; [16]): -5% | Mouse weight (DIO mice; day 16, methanesulfonate salt form): 47.2 g | Mouse weight change (DIO mice; [17]): -2.9 g | Mouse weight change rate (%) (DIO mice; [17]): -5.8% | Mouse weight (DIO mice; day 17, methanesulfonate salt form): 47.2 g | Mouse weight change (DIO mice; [18]): -2.9 g | Mouse weight change rate (%) (DIO mice; [18]): -5.8% | Mouse weight (DIO mice; day 18, methanesulfonate salt form): 46.7 g | Mouse weight change (DIO mice; [19]): -3.4 g | Mouse weight change rate (%) (DIO mice; [19]): -6.8% | Mouse weight (DIO mice; day 19, methanesulfonate salt form): 46.7 g | Mouse weight change (DIO mice; [20]): -3.4 g | Mouse weight change rate (%) (DIO mice; [20]): -6.8% | Mouse weight (DIO mice; day 20, methanesulfonate salt form): 46.1 g | Mouse weight change (DIO mice; [21]): -4.0 g | Mouse weight change rate (%) (DIO mice; [21]): -8% | Mouse weight (DIO mice; day 21, methanesulfonate salt form): 45.2 g | Mouse weight change (DIO mice; [22]): -4.9 g | Mouse weight change rate (%) (DIO mice; [22]): -9.8% | Mouse weight (DIO mice; day 22, methanesulfonate salt form): 45.0 g | Mouse weight change (DIO mice; [23]): -5.1 g | Mouse weight change rate (%) (DIO mice; [23]): -10.2% | Mouse weight (DIO mice; day 23, methanesulfonate salt form): 44.5 g | Mouse weight change (DIO mice; [24]): -5.6 g | Mouse weight change rate (%) (DIO mice; [24]): -11.2% | Mouse weight (DIO mice; day 24, methanesulfonate salt form): 44.5 g | Mouse weight change (DIO mice; [25]): -5.6 g | Mouse weight change rate (%) (DIO mice; [25]): -11.2% | IC50 (MAO-B): < 0.05 µM | IC50 (MAO-A): > 10 µM
